Assay results published in ChEMBL document CHEMBL5344482, “Deconvoluting low yield from weak potency in direct-to-biology workflows with machine learning” (RSC Med Chem, 2024).
pIC50: −log10 of the molar value.

Biological target: Replicase polyprotein 1ab (Severe acute respiratory syndrome coronavirus 2, UniProt P0DTD1)
Test: Inhibition of SARS-Cov-2 main protease using fluorogenic substrate [5-FAM]-AVLQSGFR-[Lys(Dabcyl)]-K-amide by fluorogenic assay

Cc1ccc(CCN)cc1
pIC50: 7.11
